{
  "sequences": {"note": "Chains of the proteins cited; added tags and fusions are not shown.", "UniProt P35499, whole entry": "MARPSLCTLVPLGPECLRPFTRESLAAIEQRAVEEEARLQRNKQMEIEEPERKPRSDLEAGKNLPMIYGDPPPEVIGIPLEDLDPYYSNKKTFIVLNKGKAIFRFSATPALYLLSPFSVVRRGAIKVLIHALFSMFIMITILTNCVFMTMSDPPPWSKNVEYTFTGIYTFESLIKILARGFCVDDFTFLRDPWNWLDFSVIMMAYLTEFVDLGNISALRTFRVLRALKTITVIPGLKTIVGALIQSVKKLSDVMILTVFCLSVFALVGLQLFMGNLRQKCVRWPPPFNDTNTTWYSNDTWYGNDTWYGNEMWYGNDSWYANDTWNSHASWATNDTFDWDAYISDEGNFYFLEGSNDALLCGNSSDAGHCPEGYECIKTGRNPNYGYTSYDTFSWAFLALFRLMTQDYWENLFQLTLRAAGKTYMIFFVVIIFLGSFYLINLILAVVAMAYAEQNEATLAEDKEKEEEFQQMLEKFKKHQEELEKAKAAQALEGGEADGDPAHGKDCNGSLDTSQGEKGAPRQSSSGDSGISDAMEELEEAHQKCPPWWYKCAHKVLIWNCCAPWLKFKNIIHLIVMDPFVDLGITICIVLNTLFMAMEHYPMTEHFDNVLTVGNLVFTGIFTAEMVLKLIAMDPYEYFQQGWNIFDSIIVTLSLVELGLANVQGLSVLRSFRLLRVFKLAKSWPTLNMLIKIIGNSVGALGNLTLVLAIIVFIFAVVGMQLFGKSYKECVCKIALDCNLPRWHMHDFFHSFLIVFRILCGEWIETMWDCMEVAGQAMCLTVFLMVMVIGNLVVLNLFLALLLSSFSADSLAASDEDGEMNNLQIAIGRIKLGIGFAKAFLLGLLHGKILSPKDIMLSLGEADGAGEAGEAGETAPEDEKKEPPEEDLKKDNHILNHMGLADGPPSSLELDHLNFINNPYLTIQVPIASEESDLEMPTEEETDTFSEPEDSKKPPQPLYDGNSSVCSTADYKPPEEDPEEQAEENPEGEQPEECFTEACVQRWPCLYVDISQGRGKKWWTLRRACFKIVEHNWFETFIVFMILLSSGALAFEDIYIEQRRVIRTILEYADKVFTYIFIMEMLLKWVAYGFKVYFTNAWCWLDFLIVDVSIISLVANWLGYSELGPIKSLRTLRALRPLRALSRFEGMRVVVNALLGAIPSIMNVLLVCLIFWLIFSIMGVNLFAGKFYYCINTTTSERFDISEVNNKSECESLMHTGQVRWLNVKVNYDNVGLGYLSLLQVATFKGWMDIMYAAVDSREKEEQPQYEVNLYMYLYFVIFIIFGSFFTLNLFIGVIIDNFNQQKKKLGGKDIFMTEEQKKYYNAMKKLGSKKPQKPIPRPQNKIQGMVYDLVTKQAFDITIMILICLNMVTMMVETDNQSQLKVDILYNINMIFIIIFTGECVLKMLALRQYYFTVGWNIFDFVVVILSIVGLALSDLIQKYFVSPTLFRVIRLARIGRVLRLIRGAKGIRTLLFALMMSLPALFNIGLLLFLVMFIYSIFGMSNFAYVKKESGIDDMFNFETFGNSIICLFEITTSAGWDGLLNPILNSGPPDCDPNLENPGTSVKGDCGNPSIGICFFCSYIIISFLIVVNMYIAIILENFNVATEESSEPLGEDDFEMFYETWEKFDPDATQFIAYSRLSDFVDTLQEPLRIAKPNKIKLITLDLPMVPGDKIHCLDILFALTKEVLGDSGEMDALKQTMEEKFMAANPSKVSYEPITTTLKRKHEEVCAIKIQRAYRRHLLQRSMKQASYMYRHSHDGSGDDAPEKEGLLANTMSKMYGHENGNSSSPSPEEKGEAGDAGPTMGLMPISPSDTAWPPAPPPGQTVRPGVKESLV"},
  "source": "patent US20240409594A1",
  "about": "“PHOTOA[…] CHANNEL MODULATOR” (INSTITUT NATIONAL DE LA SANTÉ ET DE LA RECHERCHE MÉDICALE, priority 2021, published 2024)",
  "key": {"[1]": {"test": "Dark stability in solution", "format": "physicochemical", "conditions": "in the dark"}, "hNaV1.4": {"molecular_target": "T1, hNaV1.4 (Homo sapiens, UniProt P35499)", "T1 construct": "expressed in transfected cells; host or cells: HEK293", "test": "Automated patch-clamp, hNaV1.4 current inhibition", "format": "cell-based", "conditions": "caged JzTxV versus non-caged JzTxV"}},
  "data": [
    {"smiles": "CC[C@H](C)[C@@H]1NC(=O)CNC(=O)[C@H](CC(C)C)NC(=O)[C@@H](NC(=O)CN)CSSC[C@@H]2NC(=O)[C@@H]3CSSC[C@@H](C(=O)N[C@@H](CCCCNC(=O)OCc4cc(OC)c(OC)cc4[N+](=O)[O-])C(=O)N[C@@H](Cc4ccc(O)cc4)C(=O)N[C@@H](CCC(N)=O)C(=O)N[C@H](C(=O)N[C@@H](CCCCN)C(N)=O)[C@@H](C)CC)NC(=O)[C@H](Cc4c[nH]c5ccccc45)NC(=O)[C@H](CCCNC(=N)N)NC(=O)[C@H]([C@@H](C)O)NC(=O)[C@H](CCCCN)NC(=O)[C@H](CCCNC(=N)N)NC(=O)[C@H](CO)NC(=O)[C@H](CSSC[C@H](NC(=O)[C@H](C)NC(=O)[C@H](CCCCN)NC(=O)[C@H](Cc4ccccc4)NC1=O)C(=O)N[C@@H](CC(N)=O)C(=O)N1CCC[C@H]1C(=O)N[C@@H](CO)C(=O)N[C@@H](CC(N)=O)C(=O)N[C@@H](CC(=O)O)C(=O)N[C@@H](CCC(N)=O)C(=O)N3)NC(=O)[C@H](C(C)C)NC(=O)[C@H](CC(C)C)NC(=O)[C@H](CCCCN)NC(=O)[C@H](CO)NC(=O)[C@H](CO)NC(=O)[C@H](CCCCN)NC2=O", "note": "[caged HwTxIV-Nvoc]", "values": [
      {"measurement": "dark stability in solution", "setting": "[1]", "result": "> 1", "unit": "week"}
    ]},
    {"smiles": "CC[C@H](C)[C@H](NC(=O)[C@@H](NC(=O)[C@H](CCCCN)NC(=O)[C@H](CCCNC(=N)N)NC(=O)[C@@H]1CSSC[C@@H]2NC(=O)[C@H](C)NC(=O)[C@H](CCCNC(=N)N)NC(=O)[C@H](CCCCN)NC(=O)[C@H](CO)NC(=O)[C@H](CC(=O)O)NC(=O)[C@@H]3CSSC[C@H](NC(=O)[C@H](CCCNC(=N)N)NC(=O)[C@H](CC(C)C)NC(=O)CNC(=O)[C@H](CCC(=O)O)NC(=O)[C@H](CSSC[C@H](NC(=O)[C@@H](N)Cc4ccc(O)cc4)C(=O)N[C@@H](CCC(N)=O)C(=O)N[C@@H](CCCCN)C(=O)N[C@@H](Cc4c[nH]c5ccccc45)C(=O)N[C@@H](CCSC)C(=O)N[C@@H](Cc4c[nH]c5ccccc45)C(=O)N[C@@H]([C@@H](C)O)C(=O)N3)NC2=O)C(=O)N[C@@H](CCCCNC(=O)OCc2cc(OC)c(OC)cc2[N+](=O)[O-])C(=O)N[C@@H](CC(C)C)C(=O)N[C@@H](Cc2c[nH]c3ccccc23)C(=O)N1)[C@@H](C)CC)C(N)=O", "note": "[caged JzTxV]", "values": [
      {"measurement": "fold reduction in IC50, hNaV1.4", "setting": "hNaV1.4", "result": 218, "unit": "fold"}
    ]}
  ]
}
